These results are taken from patent publication US20230390411A1, “CONJUGATE AND USE THEREOF” (NANJING CHEMPION BIOTECHNOLOGY CO., LTD., priority 2021, published 2023).

For the assay, the system named is HER2-positive NCI-N87 cells. The assay is described as follows: Assay of FACS binding specificity. The note with it: FACS binding to NCI-N87 cells; for EC50: 4° C. 1 hour, max 100 nM. On the procedure: When the confluence of cultured NCI-N87 cells reached 70-90%, the adherent cells were digested with trypsin. The digestion was terminated with RPMI 1640 medium (Gibco, 22400-089) containing 10% FBS (ExCell Bio, FND500). The cell suspension was centrifuged at 1500 rpm at 4° C. for 5 minutes (Eppendorf, 5810R). Then the cells were resuspended by adding PBS containing 1% BSA, and the cell suspension was adjusted to a density of 1×10^6 cells/mL. 100 μL of cell suspension with 1×10^6 cells/mL was added to each well of a 96-well round-bottom microplate (Corning, 3799). The plate was centrifuged and the supernatant was discarded. ADC or monoclonal sample was serially diluted in a ratio of 1:5 (with a maximum concentration of 100 nM) in PBS containing 1% BSA, and 100 μL of the diluted sample was added to each well. The plate was incubated at 4° C. for 1 hour. At the same time, human IgG1 antibody was used as an isotype control. After the incubation was completed, each well was washed twice by adding 160 μL of PBS containing 1% BSA, and then 100 μL of goat anti-human-IgG Fc—Alexa 647 antibody diluted in a ratio of 1:500 in PBS containing 1% BSA was added as a secondary antibody. The plate was incubated at 4° C. for 30 minutes in the dark. After the incubation was completed, the plate was washed twice and the cells were resuspended in 80 μL of PBS containing 1% BSA. The fluorescence intensity was detected by flow cytometry (BD Biosciences, FACS CantoII), and the fluorescence value was expressed as mean fluorescence intensity (MFI).
The raw data obtained from the FACS assay were analyzed with FlowJo software, and the EC50 value was calculated by using GraphPad Prism 6 non-linear four-parameter non-linear regression with the sample wells not containing antibodies or in which only a secondary antibody was incubated as the background fluorescence intensity of cells.
On the technique in general: Flow cytometry measures light scatter and fluorescence of single cells or particles in a stream.

For the substance “mAb-Herceptin: naked Herceptin antibody, internalizing anti-human her2 antibody”, the “Max MFI” value worked out at 51000.0 (Table 1), 106000 (Table 2) and 123000 (Table 3). Further, the EC50 worked out at 1.54 nM (Table 1), 2.1 nM (Table 2) and 1.38 nM (Table 3).

A word on the EC50: it is the concentration needed to bring the measured effect to its halfway point. Lower therefore signals greater potency.
